Results taken from ChEMBL document CHEMBL5726786, “Substituted prolines/piperidines as orexin receptor antagonists” (2018).

By UniProt entry, the sequences of proteins in these tests, tags left out.
UniProt O43613, whole entry: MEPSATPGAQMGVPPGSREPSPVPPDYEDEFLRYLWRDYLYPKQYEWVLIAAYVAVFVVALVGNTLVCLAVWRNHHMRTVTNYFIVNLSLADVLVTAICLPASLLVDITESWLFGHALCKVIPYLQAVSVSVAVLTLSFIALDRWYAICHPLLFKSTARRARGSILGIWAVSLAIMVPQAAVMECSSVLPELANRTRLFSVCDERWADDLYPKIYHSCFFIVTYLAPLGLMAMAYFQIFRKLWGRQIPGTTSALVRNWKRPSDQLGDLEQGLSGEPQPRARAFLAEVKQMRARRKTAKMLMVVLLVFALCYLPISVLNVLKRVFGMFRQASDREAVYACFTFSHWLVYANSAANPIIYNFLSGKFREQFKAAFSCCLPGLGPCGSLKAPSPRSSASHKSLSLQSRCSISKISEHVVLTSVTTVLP

Biological target: Orexin/Hypocretin receptor type 1 (Homo sapiens, UniProt O43613)

With `Cc1ccc(-c2ccc(C)nc2)c(C(=O)N2CCC[C@@H](C)[C@H]2CNc2nc3cc(Cl)ccc3o2)c1` as the molecule, how does the IC50 read?
Its IC50 is 100 nM.
